Measurements from paper PMC6444592, “Citrullination of HP1γ chromodomain affects association with chromatin” (Epigenetics & Chromatin, 2019).

Tested on: PADI4
Experiment: in vitro citrullination (deimination) assay of HP1γ
Type: biochemical, human
Conditions: 100 ng peptide; GST-HP1γWT substrate; with calcium; n = 3, p value: 0.004
Method: For immunoblotting, cells were lysed in 2 × Laemmli buffer and sonicated in a water bath (Fisherbrand) for 3 min to shear genomic DNA, spun down at full speed in a microfuge for 15 min and incubated for 5 min at 95 °C. Proteins were resolved by SDS-PAGE, transferred to nitrocellulose membrane (Millipore) using wet transfer (transfer buffer: 192 mM glycine, 25 mM Tris.HCl pH8.8) and incubated in blocking solution (5% BSA in TBS containing 0.5% Tween-20 for citrulline sensitive antibodies and 5% non-fat milk powder in TBS containing 0.1% Tween-20 for all other antibodies) for 1 h at room temperature (RT). Membranes were incubated with primary antibody at 4 °C o/n and appropriate HRP-conjugated secondary antibody for 1 h at RT. Membranes were then incubated for enhanced chemiluminescence (ECL, Promega), and proteins were detected by exposure to X-ray film or using the ChemiDoc™ MP imaging system (Bio-Rad). Images were quantified using ImageJ analysis software. Primary antibodies diluted in blocking solution were used to detect citrullinated histone H3R2 (H3R2-Cit, Abcam ab176843 at 1:1000 dilution), HP1γ (Millipore 05-690 MAB clone 42s2 [16] at 1:1000 dilution), β-Tubulin (Abcam ab6046 at 1:1000 dilution) and peptidyl-citrulline (Millipore MABN328, clone F95 [48] at 1:1000 dilution). […]

NH2-ARTKQTARK(me3)STGGKAP-Biotin (ARTKQTARKSTGGKAP; trimethyl-lysine at K9 (K(me3)); biotin at the C-terminus) [H3K9me3(1–16), trimethylated H3K9 peptide, residues 1–16, reference compound]
increase of HP1γ citrullination by PADI4 (fold): approximately twofold
